Test results as given in article PMC6480602, “Design, Synthesis, and Evaluation of Monoamine Oxidase A Inhibitors–Indocyanine Dyes Conjugates as Targeted Antitumor Agents” (Molecules, 2019).

Sequences of proteins named here, by UniProt entry; tags and fusion partners are left off.
UniProt P21397, whole entry: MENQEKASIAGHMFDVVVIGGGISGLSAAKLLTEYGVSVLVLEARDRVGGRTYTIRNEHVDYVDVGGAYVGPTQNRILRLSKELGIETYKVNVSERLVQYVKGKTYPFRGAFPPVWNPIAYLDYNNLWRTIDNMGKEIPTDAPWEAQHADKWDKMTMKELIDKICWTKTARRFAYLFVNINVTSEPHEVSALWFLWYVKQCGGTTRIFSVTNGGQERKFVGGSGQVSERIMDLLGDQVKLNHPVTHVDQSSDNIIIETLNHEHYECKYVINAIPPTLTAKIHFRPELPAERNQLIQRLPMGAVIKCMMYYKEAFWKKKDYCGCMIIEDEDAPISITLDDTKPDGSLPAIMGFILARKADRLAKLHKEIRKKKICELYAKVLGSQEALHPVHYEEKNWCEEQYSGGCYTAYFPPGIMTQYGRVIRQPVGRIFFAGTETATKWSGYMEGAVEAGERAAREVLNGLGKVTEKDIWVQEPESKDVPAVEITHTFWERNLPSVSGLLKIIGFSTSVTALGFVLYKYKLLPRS

Biological target: T1, Monoamine oxidase A (MAOA) (Homo sapiens, UniProt P21397)
T1 construct: the prostate cancer cell line LNCaP expressed a relatively high level of MAOA; endogenous in cells; host or cells: LNCaP cells (Cell Bank of the Chinese Academy of Sciences, Shanghai)
Assay: MAOA inhibition activity assay in LNCaP cells (Cell MAOA Assay Kit)
Assay type: cell-based
Experimental: Because the prostate cancer cell line LNCaP expressed a relatively high level of MAOA [17, 40], we tested the inhibitory effect of compounds G10, G11, and G12 on MAOA using LNCaP cells (Table 2).
In a 10-mm dish, 6 × 10^5 LNCaP cells were plated in medium supplemented with 10% FBS. […] The reaction products were extracted and MAOA activities were measured as described in the introduction for the Cell MAOA Assay Kit (Shanghai Chengong Biotechnology, CHN, Lot No: 1-201838-10). The MAOA activity was assessed based on the substrate p-tyramine level after treatment with MAOB inhibitor pargyline.

C#CCN(C)CCCOc1ccc(Cl)cc1Cl [Clorgyline, reference compound]
MAOA inhibitory activity (in words): most potent inhibitory effect
